CDK9/CDK6 and Pim-1/CDK6 data for one molecule are collected here from patent US11091476B2 (dated 2021).

Protein sequences, listed by entry. Tags and fused reporters are not part of them.
UniProt Q00534, whole entry: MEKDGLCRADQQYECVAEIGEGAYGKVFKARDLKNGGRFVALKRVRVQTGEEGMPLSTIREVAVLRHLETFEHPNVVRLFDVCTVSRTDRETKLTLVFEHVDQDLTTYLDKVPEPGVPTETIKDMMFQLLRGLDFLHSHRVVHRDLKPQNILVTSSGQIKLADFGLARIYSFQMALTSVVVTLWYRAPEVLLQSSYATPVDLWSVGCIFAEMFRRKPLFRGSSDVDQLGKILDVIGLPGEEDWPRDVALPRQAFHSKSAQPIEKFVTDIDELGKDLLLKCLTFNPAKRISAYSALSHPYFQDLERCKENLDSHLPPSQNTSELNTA

The target of this assay is CDK6/CyclinD3 (Homo sapiens (Human), UniProt Q00534). Put plainly: CDK kinase inhibitory activity, ADP-Glo Kinase Assay, CDK6/CyclinD3. In kind it is biochemical. The following applies: ratio of IC50s. On the technique in general: ADP-Glo turns the ADP formed in a reaction into a luminescent signal.

On to `CC1=Nc2c(F)cc(-c3nc(Nc4ccc(C5CCN(C)CC5)cn4)ncc3F)cc2C12CCCC2` [Example 17, 5-Fluoro-4-(7′-fluoro-2′-methylspiro[cyclopentane-1,3′-indol]-5′-yl)-N-(5-(1-methylpiperidin-4-yl)pyridin-2-yl)pyrimidine-2-amino], for which the CDK9/CDK6 (selectivity for CDK6 over CDK9) is reported as 7.33. For the same molecule, the Pim-1/CDK6 (selectivity for CDK6 over Pim-1) is 52.43.
